Measurements reported in ChEMBL document CHEMBL3351546, “Pyridine analogues of spirocyclic σ₁ receptor ligands” (Bioorg Med Chem, 2014).

Assay: Selectivity ratio of Ki for sigma 2 receptor in rat liver membranes to Ki for sigma 1 receptor in guinea pig brain cortex membranes
Type: cell membranes

c1ccc(CN2CCC3(CC2)OCCc2sccc23)cc1
Ratio Ki: 42
